Reference: patent publication US20260265405A1

Columns and labels:
[1] = molecular target: membrane-bound human MSLN (on CHOK1-hu MSLN cells and endogenously on COV644 cells) (human) (UniProt Q13421); test: flow cytometry on CHOK1-human MSLN cells, Alexa Fluor 488 anti-human IgG detection [panel A]
[2] = molecular target: membrane-bound human MSLN (on CHOK1-hu MSLN cells and endogenously on COV644 cells) (human) (UniProt Q13421); test: flow cytometry on CHOK1-human MSLN cells, Alexa Fluor 488 anti-human IgG detection [panel B]
[3] = molecular target: membrane-bound human MSLN (on CHOK1-hu MSLN cells and endogenously on COV644 cells) (human) (UniProt Q13421); test: flow cytometry on COV644 cells (endogenous human MSLN), Alexa Fluor 488 anti-human IgG detection [panel A]

EC50 (read off the curve) [1]: 0.6 nM | EC50 (read off the curve) [2]: 0.6 nM | EC50 (read off the curve) [3]: 0.2 nM
Substance: PR000685 (Amatuximab) (antibody)
